Reference: US9980973B2, “Bicyclic heterocycle compounds and their uses in therapy” (ASTEX THERAPEUTICS LIMITED, priority 2012, dated 2018)
Where a name gives a salt, the structure may show the parent alone. Read-outs that look alike come from different tables or passages of the source.

Chains of the proteins cited; added tags and fusions are not shown. Residues count along the entry.
UniProt P98170, 252-350: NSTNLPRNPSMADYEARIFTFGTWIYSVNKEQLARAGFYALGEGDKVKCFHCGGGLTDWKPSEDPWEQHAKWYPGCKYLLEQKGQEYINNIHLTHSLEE
UniProt Q13490, 267-363: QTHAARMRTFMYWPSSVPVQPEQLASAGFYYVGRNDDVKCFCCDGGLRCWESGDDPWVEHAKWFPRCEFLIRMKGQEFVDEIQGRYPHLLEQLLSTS

Assays:
[1] = molecular target: T1, BIR3 domain of human XIAP (Homo sapiens, UniProt P98170); assay: XIAP in vitro competitive displacement binding assay (fluorescence polarization); conditions: for Xiap IC50 or PI μM (PI): 60 min, dihydrochloride, 0.04 µM
T1 construct: BIR3 domain of human XIAP (residues 252-350) fused to a His-tag; His-tag (cleaved yes); made in house; host or cells: Escherichia coli

[2] = molecular target: T2, BIR3 domain of human cIAP-1 (Homo sapiens, UniProt Q13490); assay: cIAP-1 in vitro competitive displacement binding assay (fluorescence polarization); conditions: for inhibition at 0.012 µM: 3 h; for cIAP1 IC50 or PI μM (PI): 180 min, dihydrochloride, 0.012 µM
T2 construct: human cIAP-1 (residues 267-363) fused to a GST-tag; GST-tag (cleaved yes); made in house; host or cells: Escherichia coli

[3] = 1 h, PI at 0.04 μM, read-out: Xiap IC50 or PI μM (PI)
[4] = PI at 0.012 μM, read-out: cIAP1 IC50 or PI μM (PI)
[5] = 1 h, read-out: Xiap IC50 or PI μM (PI), PI at 0.04 μM
[6] = read-out: cIAP1 IC50 or PI μM (PI), PI at 0.012 μM

CC(=O)N1CCN(C[C@H]2CN[C@H](C)CN2CC(=O)N2CC(C)(C)c3ncc(Cc4ccc(F)cc4)cc32)C(C)C1 (mixture of isomers) [Example 33, 2-[(2R,5R)-2-[(4-Acetyl-2-methylpiperazin-1-yl)methyl]-5-methylpiperazin-1-yl]-1-{6-[(4-fluorophenyl)methyl]-3,3-dimethyl-1H,2H,3H-pyrrolo[3,2-b]pyridin-1-yl}ethan-1-one dihydrochloride]
inhibition at 0.04 µM [1, 3]: 38%

CO[C@@H]1CN(C[C@H]2CN[C@H](C)CN2CC(=O)N2CC(C)(C)c3ncc(Cc4ccc(F)cc4)cc32)C[C@@H]1F (mixture of isomers) [Example 41]
inhibition at 0.012 µM [2, 4]: 97%

C[C@@H]1CN(CC(=O)N2CC(C)(C)c3ncc(C(O)c4ccc(F)cc4F)cc32)[C@@H](CN2[C@H](C)COC[C@H]2C)CN1 (single isomer, unassigned) [Example 103, (R or S)-1-[6-[(2,4-Difluorophenyl)(hydroxy)meth-yl]-3,3-dimethyl-1H,2H,3H-pyrrolo[3,2-b]pyridin-1-yl}-2-[(2R,5R)-2-{[(3R,5R)-3,5-dimethylmorpholin-4-yl]methyl}-5-methylpiperazin-1-yl]ethan-1-one dihydrochloride]
inhibition at 0.04 µM [1, 5]: 69%
inhibition at 0.012 µM [2, 6]: 97%

C[C@@H]1CN(CC(=O)N2CC(C)(C)c3ncc(C(O)c4ccc(F)cc4F)cc32)[C@@H](CN2[C@H](C)COC[C@H]2C)CN1 (single isomer, unassigned) [Example 104, (R or S)-1-{6-[(2,4-Difluorophenyl)(hydroxy)meth-yl]-3,3-dimethyl-1H,2H,3H-pyrrolo[3,2-b]pyridin-1-yl}-2-[(2R,5R)-2-{[(3R,5R)-3,5-dimethylmorpholin-4-yl]methyl}-5-methylpiperazin-1-yl]ethan-1-one dihydrochloride]
Xiap IC50 or PI μM (PI) ([1]; PI at 0.04 μM): 70%@0.04
cIAP1 IC50 or PI μM (PI) ([2]; PI at 0.012 μM): 110%@0.012

C[C@@H]1CN(CC(=O)N2CC(C)(C)c3ncc(C(O)c4ccc(F)c(F)c4)cc32)[C@@H](CN2[C@H](C)COC[C@H]2C)CN1 (single isomer, unassigned) [Example 109, (R or S)-1-{6-[(3,4-Difluorophenyl)(hydroxy)meth-yl]-3,3-dimethyl-1H,2H,3H-pyrrolo[3,2-b]pyridin-1-yl}-2-[(2R,5R)-2-{[(3R,5R)-3,5-dimethylmorpholin-4-yl]methyl}-5-methylpiperazin-1-yl]ethan-1-one dihydrochloride]
Xiap IC50 or PI μM (PI) ([1]; PI at 0.04 μM): 64%@0.04
inhibition at 0.012 µM [2, 6]: 93%

C[C@@H]1CN(CC(=O)N2CC(C)(C)c3ncc(C(O)c4ccc(F)c(F)c4)cc32)[C@@H](CN2[C@H](C)COC[C@H]2C)CN1 (single isomer, unassigned) [Example 110, (R or S)-1-{6-[(3,4-Difluorophenyl)(hydroxy)meth-yl]-3,3-dimethyl-1H,2H,3H-pyrrolo[3,2-b]pyridin-1-yl}-2-[(2R,5R)-2-{[(3R,5R)-3,5-dimethylmorpholin-4-yl]methyl}-5-methylpiperazin-1-yl]ethan-1-one dihydrochloride]
Xiap IC50 or PI μM (PI) ([1]; PI at 0.04 μM): 39%@0.04
cIAP1 IC50 or PI μM (PI) ([2]; PI at 0.012 μM): 99%@0.012

C[C@@H]1CN(CC(=O)N2CC(C)(C)c3ncc(C(O)c4ccccc4)cc32)[C@@H](CN2[C@H](C)COC[C@H]2C)CN1 (single isomer, unassigned) [Example 114, 2-[(2R,5R)-2-{[(3R,5R)-3,5-Dimethymorpholin-4-yl]methyl}-5-methylpiperazin-1-yl]-1-{(R or S)-6-[hydroxy(phenyl)methyl]-3,3-dimethyl-1H,2H,3H-pyrrolo[3,2-b]pyridin-1-yl}ethan-1-one dihydrochloride]
inhibition at 0.04 µM [1, 5]: 82%
inhibition at 0.012 µM [2, 6]: 83%

C[C@@H]1CN(CC(=O)N2CC(C)(C)c3ncc(Cc4ccc(F)cc4)cc32)[C@@H](CN2CCCC(F)(F)C2)CN1 [Example 3, 2-[(2R,5R)-2-[(3,3-Difluoropiperidin-1-yl)methyl]-5-methylpiperazin-1-yl]-1-{6-[(4-fluorophenyl)methyl]-3,3-dimethyl-1H,2H,3H-pyrrolo[3,2-b]pyridin-1-yl}ethan-1-one dihydrochloride]
inhibition at 0.012 µM [2, 4]: 98%

C[C@@H]1CN(CC(=O)N2CC(C)(C)c3ncc(Cc4ccc(F)cc4)cc32)[C@@H](CN2CCC(F)(F)CC2)CN1 [Example 4, 2-[(2R,5R)-2-[(4,4-Difluoropiperidin-1-yl)methyl]-5-methylpiperazin-1-yl]-1-{6-[(4-fluorophenyl)methyl]-3,3-dimethyl-1H,2H,3H-pyrrolo[3,2-b]pyridin-1-yl}ethan-1-one dihydrochloride]
inhibition at 0.012 µM [2, 4]: 93%

C[C@@H]1CN(CC(=O)N2CC(C)(C)c3ncc(Cc4ccc(F)cc4)cc32)[C@@H](CN2CCOCC2(C)C)CN1 [Example 5, 2-[(2R,5R)-2-[(3,3-Dimethylmorpholin-4-yl)methyl]-5-methylpiperazin-1-yl]-1-{6-[(4-fluorophenyl)methyl]-3,3-dimethyl-1H,2H,3H-pyrrolo[3,2-b]pyridin-1-yl}ethan-1-one dihydrochloride]
inhibition at 0.04 µM [1, 3]: 41%
inhibition at 0.012 µM [2, 4]: 98%

C[C@@H]1CN(CC(=O)N2CC(C)(C)c3ncc(Cc4ccc(F)cc4)cc32)[C@@H](CN2CCC(F)(F)C2)CN1 [Example 6, 2-[(2R,5R)-2-[(3,3-Difluoropyrrolidin-1-yl)methyl]-5-methylpiperazin-1-yl]-1-{6-[(4-fluorophenyl)methyl]-3,3-dimethyl-1H,2H,3H-pyrrolo[3,2-b]pyridin-1-yl}ethan-1-one dihydrochloride]
inhibition at 0.12 µM ([1]; 1 h, PI at 0.12 μM, read-out: Xiap IC50 or PI μM (PI)): 52%

C[C@@H]1CN(CC(=O)N2CC(C)(C)c3ncc(Cc4ccc(F)cc4)cc32)[C@@H](CN2C[C@@H]3C[C@H]2CO3)CN1 [Example 7, 1-{6-[(4-Fluorophenyl)methyl]-3,3-dimethyl-1H,2H,3H-pyrrolo[3,2-b]pyridin-1-yl}-2-[(2R,5R)-5-methyl-2-[(1S,4S)-2-oxa-5-azabicyclo[2.2.1]heptan-5-ylmethyl]piperazin-1-yl]ethan-1-one dihydrochloride]
inhibition at 0.012 µM [2, 6]: 80%

CC1CC(=O)CCN1C[C@H]1CN[C@H](C)CN1CC(=O)N1CC(C)(C)c2ncc(Cc3ccc(F)cc3)cc21 (stereo partly drawn) [Example 8, 1-{[(2R,5R)-1-(2-{6-[(4-Fluorophenyl)methyl]-3,3-dimethyl-1H,2H,3H-pyrrolo[3,2-b]pyridin-1-yl}-2-oxoethyl)-5-methylpiperazin-2-yl]methyl}-2-methylpiperidin-4-one dihydrochloride]
inhibition at 0.012 µM [2, 4]: 93%

C[C@@H]1CN(CC(=O)N2CC(C)(C)c3ncc(Cc4ccc(F)cc4)cc32)[C@@H](CN2CCC[C@H]2CO)CN1 [Example 12, 1-{6-[(4-Fluorophenyl)methyl]-3,3-dimethyl-1H,2H,3H-pyrrolo[3,2-b]pyridin-1-yl}-2-[(2R,5R)-2-{[(2S)-2-(hydroxymethyl)pyrrolidin-1-yl]methyl}-5-methylpiperazin-1-yl]ethan-1-one dihydrochloride]
inhibition at 0.012 µM [2, 4]: 85%

C[C@@H]1CN(CC(=O)N2CC(C)(C)c3ncc(Cc4ccc(F)cc4)cc32)[C@@H](CN2C3CCC2COC3)CN1 [Example 17, 1-{6-[(4-Fluorophenyl)methyl]-3,3-dimethyl-1H,2H,3H-pyrrolo[3,2-b]pyridin-1-yl}-2-[(2R,5R)-5-methyl-2-{3-oxa-8-azabicyclo[3.2.1]octan-8-ylmethyl}piperazin-1-yl]ethan-1-one dihydrochloride]
inhibition at 0.012 µM [2, 4]: 98%

C[C@@H]1CN(CC(=O)N2CC(C)(C)c3ncc(Cc4ccc(F)cc4)cc32)[C@@H](CN2CC3CCC(C2)O3)CN1 [Example 18, 1-{6-[(4-Fluorophenyl)methyl]-3,3-dimethyl-1H,2H,3H-pyrrolo[3,2-b]pyridin-1-yl}-2-[(2R,5R)-5-methyl-2-{8-oxa-3-azabicyclo[3.2.1]octan-3-ylmethyl}piperazin-1-yl]ethan-1-one dihydrochloride]
inhibition at 0.012 µM [2, 4]: 97%

C[C@@H]1CN(CC(=O)N2CC(C)(C)c3ncc(Cc4ccc(F)cc4)cc32)[C@@H](CN2CC3CC2CO3)CN1 (stereo partly drawn) [Example 20, 1-{6-[(4-Fluorophenyl)methyl]-3,3-dimethyl-1H,2H,3H-pyrrolo[3,2-b]pyridin-1-yl}-2-[(2R,5R)-5-methyl-2-{2-oxa-5-azabicyclo[2.2.1]heptan-5-ylmethyl}piperazin-1-yl]ethan-1-one dihydrochloride]
inhibition at 0.012 µM [2, 6]: 90%

C[C@@H]1CN(CC(=O)N2CC(C)(C)c3ncc(Cc4ccc(F)cc4)cc32)[C@@H](CN2CCC[C@H]2CF)CN1 [Example 30, 2-[(2R,5R)-2-{[(2S)-2-(Fluoromethyl)pyrrolidin-1-yl]methyl}-5-methylpiperazin-1-yl]-1-{6-[(4-fluorophenyl)methyl]-3,3-dimethyl-1H,2H,3H-pyrrolo[3,2-b]pyridin-1-yl}ethan-1-one dihydrochloride]
inhibition at 0.012 µM [2, 4]: 97%

C[C@@H]1CN(CC(=O)N2CC(C)(C)c3ncc(Cc4ccc(F)cc4)cc32)[C@@H](CN2CCC[C@H]2C(F)(F)F)CN1 [Example 36, 1-{6-[(4-Fluorophenyl)methyl]-3,3-dimethyl-1H,2H,3H-pyrrolo[3,2-b]pyridin-1-yl}-2-[(2R,5R)-5-methyl-2-{[(2S)-2-(trifluoromethyl)pyrrolidin-1-yl]methyl}piperazin-1-yl]ethan-1-one]
inhibition at 0.04 µM [1, 3]: 38%

C[C@@H]1CN(CC(=O)N2CC(C)(C)c3ncc(Cc4ccc(F)cc4)cc32)[C@@H](CN2CCn3cnnc3C2)CN1 [Example 71, 1-{6-[(4-Fluorophenyl)methyl]-3,3-dimethyl-1H,2H,3H-pyrrolo[3,2-b]pyridin-1-yl}-2-[(2R,5R)-5-methyl-2-{5H, 6H, 7H, 8H-[1,2,4]triazolo[4,3-a]pyrazin-7-ylmethyl}piperazin-1-yl]ethan-1-one dihydrochloride]
inhibition at 0.012 µM [2, 4]: 97%
